# Assay results as given in patent US20170258781A1, “ATRIAL SPECIFIC ANTIARRHYTHMICS FOR USE IN TREATING OR PREVENTING ATRIAL FIBRILLATION” (Tufts Medical Center, Inc., priority 2014, published 2017).
# Protein sequences, listed by entry. Tags and fused reporters are not part of them. Lines headed by an entry give the natural chain unless they say otherwise; changes in a name come on top.
# UniProt Q12809: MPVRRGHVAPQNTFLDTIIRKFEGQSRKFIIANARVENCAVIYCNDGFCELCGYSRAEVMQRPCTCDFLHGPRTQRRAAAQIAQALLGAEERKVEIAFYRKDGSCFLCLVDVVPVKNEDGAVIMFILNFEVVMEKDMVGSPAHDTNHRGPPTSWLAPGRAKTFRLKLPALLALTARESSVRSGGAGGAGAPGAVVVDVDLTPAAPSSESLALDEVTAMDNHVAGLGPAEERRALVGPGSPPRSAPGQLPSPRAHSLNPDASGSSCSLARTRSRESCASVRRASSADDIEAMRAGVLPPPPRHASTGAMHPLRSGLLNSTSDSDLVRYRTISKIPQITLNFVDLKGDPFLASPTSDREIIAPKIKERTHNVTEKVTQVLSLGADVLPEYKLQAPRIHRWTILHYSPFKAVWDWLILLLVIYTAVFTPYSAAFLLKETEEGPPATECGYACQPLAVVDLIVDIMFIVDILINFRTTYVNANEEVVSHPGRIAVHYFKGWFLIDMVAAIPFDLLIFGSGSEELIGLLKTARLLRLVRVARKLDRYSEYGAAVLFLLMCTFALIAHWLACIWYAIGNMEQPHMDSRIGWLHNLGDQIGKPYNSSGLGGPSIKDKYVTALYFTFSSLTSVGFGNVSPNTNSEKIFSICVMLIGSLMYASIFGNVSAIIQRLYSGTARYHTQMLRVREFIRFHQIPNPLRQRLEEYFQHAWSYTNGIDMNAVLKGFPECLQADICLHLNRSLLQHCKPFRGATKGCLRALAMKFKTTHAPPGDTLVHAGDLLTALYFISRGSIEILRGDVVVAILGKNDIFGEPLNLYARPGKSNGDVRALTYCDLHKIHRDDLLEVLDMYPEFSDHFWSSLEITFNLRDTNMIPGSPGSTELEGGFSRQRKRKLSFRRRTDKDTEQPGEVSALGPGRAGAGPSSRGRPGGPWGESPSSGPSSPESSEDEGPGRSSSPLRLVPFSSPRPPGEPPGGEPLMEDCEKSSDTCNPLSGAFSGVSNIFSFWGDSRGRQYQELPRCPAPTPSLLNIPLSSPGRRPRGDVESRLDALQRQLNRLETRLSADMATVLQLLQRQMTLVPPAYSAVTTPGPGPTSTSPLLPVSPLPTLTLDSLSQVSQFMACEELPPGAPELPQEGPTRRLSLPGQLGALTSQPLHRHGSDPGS
# Target: IKr (hERG protein channel) (Homo sapiens, UniProt Q12809)
# Assay: Patch clamp block of IKr tail current in transfected CHO cells
# Settings: for percentage block of IKr tail current: 1 μM drug, CHO cells transfected with hERG, full block with 10 μM E4031, 5 minute superfusion
# Experimental: FIG. 2: IKr current was measured in Chinese hamster ovary cells (CHO) expressing the current.
# The arrow denotes the tail current. Tail current is elicited by 3 second step voltage drop from +20 mV to −40 mV. The gray trace is the remaining current after total current block with E4031.
# We used the conventional patch clamp method and human embryonic kidney cells transfected with Kir3.1 and Kir3.4 protein channels responsible for IKACh, or Chinese hamster ovary cells transfected with the hERG protein channel responsible for IKr. […] In order to elicit IKACh, the cells were subjected to a voltage protocol consisting of a 2 second ramp from −130 mV to 50 mV, from a holding potential of −40 mV. IKr tail current was elicited by a 3 second voltage drop step from 20 mV to −40 mV. The drugs were superfused over a 5 minute period into the chambers that hold the cells.
substance,measurement,setting,value
chloroquine [racemic chloroquine],percentage block of IKr tail current,,33%
same,percentage block of IKr tail current,listed as Racemic chloroquine,32.9%±1.2
same,"percentage block of IKr current (FIG. 5, Compound A experiments)","Compound A vs racemic chloroquine, same manner and cell lines, concentration not given",68%±2.8
